Assay [1] deals with Beta Secretase enzyme (BACE) (Homo sapiens, UniProt P56817). The assay is described as follows: In vitro enzymatic BACE FRET (fluorescence resonance energy transfer) assay. It is filed as biochemical. The conditions noted are these: read-out: BACE 1 FRET assay; average IC50, enzyme assay.
For assay [2], the system named is Aβ40 in conditioned medium of cells stably expressing Amyloid Precursor Protein (APP). The assay is described as follows: In vitro BACE cell-based assay (Aβ40 in conditioned medium, sandwich ELISA). The following applies: read-out: HEK cell assay; average IC50, HEK cell assay.

Protein sequences, listed by entry. Tags and fused reporters are not part of them. Residues count along the entry.
UniProt P56817, 46-501 limits assumed: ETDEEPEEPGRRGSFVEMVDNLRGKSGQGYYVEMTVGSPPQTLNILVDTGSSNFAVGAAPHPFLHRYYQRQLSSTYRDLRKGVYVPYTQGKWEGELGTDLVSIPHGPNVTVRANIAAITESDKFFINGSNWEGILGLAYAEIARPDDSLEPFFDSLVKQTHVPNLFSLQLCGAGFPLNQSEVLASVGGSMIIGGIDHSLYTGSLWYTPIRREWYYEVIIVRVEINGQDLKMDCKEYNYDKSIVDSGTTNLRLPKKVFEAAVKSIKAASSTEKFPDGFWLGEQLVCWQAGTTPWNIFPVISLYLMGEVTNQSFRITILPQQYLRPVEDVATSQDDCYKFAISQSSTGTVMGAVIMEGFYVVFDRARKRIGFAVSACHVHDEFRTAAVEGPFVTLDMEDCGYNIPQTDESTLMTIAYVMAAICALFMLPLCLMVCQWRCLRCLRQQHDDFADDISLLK

With `NC1=N[C@@]2(CO1)c1cc(-c3cncc(F)c3)ccc1Oc1c2cc(C2CC2)nc1F`, the IC50 in assay [1] turned out to be 316 nM; in assay [2] it was 1150 nM.

The values above are taken from patent US8883782B2, “Spiro-tetracyclic ring compounds as beta-secretase modulators and methods of use” (Amgen Inc., priority 2010, dated 2014).
